# PubChem BioAssay AID1236 (Emory University Molecular Libraries Screening Center, 2008)
# The entries are a selection whose mix differs from that of the whole data set. Some salts and complexes are drawn in separate pieces, as the source files them; their charges need not balance. Active and inactive are the calls of the source.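 How the source made its calls: active means inhibition above about 50% (limit read from the data); inactive means the rest.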
# Tested on: calpain II (m-calpain), Sus scrofa
# Assay: m-calpain protease activity blockers – biochemical, fluorogenic peptide substrate, 1536-well, primary screen (AID 1236)
# Conditions: purified calpain II, 30 min, at 16 µM, active compounds read high
row,Structure (SMILES),inhibition
1,CCN(CC)CCCOC(=O)C(O)(c1ccccc1)C1CCCCC1 (stereo not drawn),inactive: -9.65%
2,CP(=O)(Nc1ccccc1)Oc1ccc(F)cc1 (stereo not drawn),inactive: -2.74%
3,CCCCCOc1ccc(NP(C)(=O)Oc2ccc(Cl)cc2Cl)cc1 (stereo not drawn),active: 50.9%
4,CCOC(=O)c1ccc(NP(C)(=O)Oc2ccc(F)cc2)cc1 (stereo not drawn),inactive: 14.3%
5,COc1ccc(OP(C)(=O)Nc2ccc(SC(F)(F)F)cc2)cc1 (stereo not drawn),inactive: 29.2%
6,O=C(OC1CN2CCC1CC2)c1ccc([N+](=O)[O-])cc1 (stereo not drawn),inactive: 28.7%
7,O=C(OCCN1CCN(CCOCc2ccccc2)CC1)C(O)(c1ccccc1)c1ccccc1,inactive: -4.24%
8,COc1ccc2c(c1O)-c1c(O)c(OC)cc3c1[C@H](C2)[N+](C)(C)CC3.O=[N+]([O-])c1cc([N+](=O)[O-])c([O-])c([N+](=O)[O-])c1[O-],inactive: -283%
9,CP(=O)(Nc1ccccc1F)Oc1ccccc1 (stereo not drawn),inactive: 23%
10,CC(C)c1ccc(OP(C)(=O)Nc2ccc(SC(F)(F)F)cc2)cc1 (stereo not drawn),inactive: 4.74%
11,CP(=O)(Nc1ccc2c(c1)OCCO2)Oc1ccccc1 (stereo not drawn),inactive: 29.4%
12,Cc1ccccc1NP(C)(=O)Nc1ccccc1C,inactive: -32%
13,CP(=O)(Nc1ccc(SC(F)(F)F)cc1)Oc1ccc(F)cc1 (stereo not drawn),inactive: 2.09%
14,CCOP(C)(=S)SCC(=O)NC(C)(CC)C(=O)O (stereo not drawn),inactive: -13.7%
15,O=[N+]([O-])c1ccc(OP2(=O)COCCO2)cc1 (stereo not drawn),inactive: -6.58%
16,Cc1cc(-c2cccc3ccccc23)c(C)cn1.O=[N+]([O-])c1cc([N+](=O)[O-])c(O)c([N+](=O)[O-])c1,inactive: 18.6%
17,O=[N+]([O-])c1cc([N+](=O)[O-])c(NCC2CCS(=O)(=O)C2)c([N+](=O)[O-])c1 (stereo not drawn),inactive: -5.1%
18,COc1ccc(OP(C)(=O)Nc2cccc(Br)c2)cc1 (stereo not drawn),inactive: 20.2%
19,CN(C)CCOC(=O)C(O)(c1ccccc1)C1CCCCC1 (stereo not drawn),inactive: -0.31%
20,COc1ccc(NP(C)(=O)Oc2ccccc2OC)cc1 (stereo not drawn),inactive: 6.08%
21,CCOC(=O)c1ccc(NP(C)(=O)Oc2ccc(Cl)cc2)cc1 (stereo not drawn),inactive: 15.5%

row,Structure (SMILES),inhibition
1,CP(=O)(OC12CC3CC(CC(C3)C1)C2)OC12CC3CC(CC(C3)C1)C2,inactive: 22.7%
2,CC(C)(C)c1ccc(OP(C)(=O)O)cc1,inactive: -25.3%
3,COc1ccccc1OP(C)(=O)Nc1ccccc1Br (stereo not drawn),inactive: 2.56%
4,CP(=O)(Nc1ccc(Cl)cc1)Oc1ccc(F)cc1 (stereo not drawn),inactive: -23.5%
5,CN(C)C(=O)c1c([N+](=O)[O-])cc([N+](=O)[O-])cc1[N+](=O)[O-],inactive: -35.4%
6,CCN(CC)CC(O)COC(=O)C(O)(c1ccccc1)C1CCCCC1 (stereo not drawn),inactive: 30.6%
7,COc1ccc(OP(C)(=O)Nc2ccc(Br)cc2)cc1 (stereo not drawn),inactive: 22.6%
8,O=C(OCCCN1CCCC1)C(O)(c1ccccc1)C1CCCCC1 (stereo not drawn),inactive: 30.5%
9,CP(=O)(Oc1ccccc1)N1CCOC1=O (stereo not drawn),inactive: 5.89%
10,CCc1ccc(OP(C)(=O)Nc2cccnc2)cc1 (stereo not drawn),inactive: 6.62%
11,O=[N+]([O-])c1cc([N+](=O)[O-])c(Nc2ccccn2)c([N+](=O)[O-])c1,inactive: -15.4%
12,Cc1c(NP(C)(=O)Oc2ccc(C(C)C)cc2)c(=O)n(-c2ccccc2)n1C (stereo not drawn),inactive: -24.3%
13,CP(=O)(Nc1ccccn1)Oc1ccccc1 (stereo not drawn),inactive: -9.35%
14,COc1ccccc1OP(C)(=O)Nc1ccc(C)cc1C (stereo not drawn),inactive: 9.28%
15,CCc1ccc(OP(C)(=O)O)cc1,inactive: 2.55%
16,COc1ccccc1OP(C)(=O)Nc1ccc(Br)cc1 (stereo not drawn),inactive: -6.9%
17,COc1ccc(OP(C)(=O)Nc2ccccn2)cc1 (stereo not drawn),inactive: 0.82%
18,CN(C)CCOC(=O)C(O)(c1ccccc1)C1CCCC1 (stereo not drawn),inactive: 11.2%
19,Cc1nc2ccc3ccccc3c2o1.O=[N+]([O-])c1cc([N+](=O)[O-])c(O)c([N+](=O)[O-])c1,inactive: -8.27%
20,CP(=O)(OCCOc1ccccc1)OCCOc1ccccc1,inactive: -18.9%
21,CP(=O)(Nc1ccc(Cl)cc1Cl)Oc1ccccc1 (stereo not drawn),inactive: -1.73%

row,Structure (SMILES),inhibition
1,Cc1cc(C)cc(OP(C)(=O)Nc2cccc(C(F)(F)F)c2)c1 (stereo not drawn),inactive: 16.1%
2,COc1ccccc1OP(C)(=O)Nc1ccc(C)c(C)c1 (stereo not drawn),inactive: 21.1%
3,COc1ccc(OP(C)(=O)Nc2ccccc2Br)cc1 (stereo not drawn),inactive: 22.1%
4,COc1ccccc1OP(C)(=O)Nc1ccc(C)cc1 (stereo not drawn),inactive: 13.9%
5,Cc1ccc(NP(C)(=O)Oc2ccccc2)c(C)c1 (stereo not drawn),inactive: -17%
6,CCOC(=O)c1ccc(NP(C)(=O)Oc2ccccc2)cc1 (stereo not drawn),inactive: -4.93%
7,Cc1cc(C)cc(OP(C)(N)=O)c1 (stereo not drawn),inactive: 7.5%
8,COc1ccccc1OP(C)(=O)Nc1cc(Cl)ccc1C (stereo not drawn),inactive: -7.26%
9,COc1ccc(OP(C)(=O)Nc2cccc(F)c2)cc1 (stereo not drawn),inactive: 14.5%
10,O=[N+]([O-])c1ccc2c(c1)C=Nc1ccccc1O2,inactive: 14.6%
11,CC(C)(C)c1ccc(OP(C)(=O)Nc2ccc(SC(F)(F)F)cc2)cc1 (stereo not drawn),inactive: 11.2%
12,Cc1cccc(C)c1OP(C)(N)=O (stereo not drawn),inactive: -2.05%
13,CCN(CC)CCCOC(=O)C(O)(c1ccccc1)c1ccccc1,inactive: -16%
14,CCOC(=O)c1ccc(NP(C)(=O)Oc2ccc(OC)cc2)cc1 (stereo not drawn),inactive: -9.27%
15,CCOP(C)(=S)SCC(=O)NC(C)C(=O)O (stereo not drawn),inactive: -9.81%
16,CP(=O)(Nc1ccccn1)Oc1ccc(Cl)cc1 (stereo not drawn),inactive: 10.8%
17,CP(=O)(Nc1ccc(SC(F)(F)F)cc1)Oc1ccc(Cl)cc1 (stereo not drawn),inactive: 8.59%
18,Cc1cccc(C)c1OP(C)(=O)Nc1ccc(SC(F)(F)F)cc1 (stereo not drawn),inactive: 31.3%
19,CP(=O)(Oc1ccccc1)OC(c1ccccc1)C(F)(F)F (stereo not drawn),inactive: 33.2%
20,CCc1ccc(OP(C)(=O)N2CCN(c3ccc([N+](=O)[O-])cc3)CC2)cc1 (stereo not drawn),inactive: 17.4%
21,CP(=O)(NC(=O)Nc1ccccc1)Oc1ccccc1 (stereo not drawn),inactive: -15.8%
